Results on one substance are retold here after publication PMC6268262, “Improved Antileishmanial Activity of Dppz through Complexation with Antimony(III) and Bismuth(III): Investigation of the Role of the Metal” (Molecules, 2012).

The subject of the data set is mouse peritoneal macrophages. As to the kind of experiment: Cytotoxicity assay against peritoneal macrophages (MTT). The class given is cell-based. The following applies: 24 h, read-out: CC50: concentration of dppz which is cytotoxic against 50% of macrophages. The procedure:
The concentration of studied compounds which is cytotoxic to 50% of the macrophages (CC50) was determined by 3-(4,5-dimethylthiazol-2-yl)-2,5 diphenyltetrazolium bromide (MTT) method according to Mosmann. Macrophages were obtained by lavage of peritoneal cavity of mice with 10 mL cold RPMI without FBS. After washing, the cell suspension (4.0 × 10^6/mL) was seeded (0.1 mL) in 96-well flat bottom plates. Macrophages were allowed to adhere for 2 h and non-adherent cells were removed by washing with RPMI. Then, the studied compounds were added to the wells at concentrations ranging from 1 to 20 μM and the cells were further cultured in RPMI-1640 supplemented with 10% FBS for 24 h at 37 °C in a humidified 5% CO2 atmosphere. Thereafter, the medium was replaced with fresh RPMI containing 0.5 mg/mL of MTT and the plates were incubated for additional 4 h. Supernatants were aspirated and the formazan crystals formed were dissolved in 100 μL of DMSO. After 15 min of incubation at room temperature, absorbance of solubilized MTT formazan product was spectrophotometrically measured at 570 nm.
The IC50 and CC50 values were calculated by nonlinear regression using the software GraphPad Prism 5.0. The acceptable level of significance was 95% (p < 0.05).

Consider [Bi(dppz)Cl3] [complex 2], for which the CC50 was 4.8 µM.
